Assay results: ChEMBL document CHEMBL1129750, “Bicyclic N-hydroxyurea inhibitors of 5-lipoxygenase: pharmacodynamic, pharmacokinetic, and in vitro metabolic studies characterizing N-hydroxy-N-(2,3-dihydro-6-(phenylmethoxy)-3-benzofuranyl)urea” (J Med Chem, 1996)

Molecular target: T1, Polyunsaturated fatty acid 5-lipoxygenase (Rattus norvegicus, UniProt P12527)
T1 sequence (P12527 whole entry): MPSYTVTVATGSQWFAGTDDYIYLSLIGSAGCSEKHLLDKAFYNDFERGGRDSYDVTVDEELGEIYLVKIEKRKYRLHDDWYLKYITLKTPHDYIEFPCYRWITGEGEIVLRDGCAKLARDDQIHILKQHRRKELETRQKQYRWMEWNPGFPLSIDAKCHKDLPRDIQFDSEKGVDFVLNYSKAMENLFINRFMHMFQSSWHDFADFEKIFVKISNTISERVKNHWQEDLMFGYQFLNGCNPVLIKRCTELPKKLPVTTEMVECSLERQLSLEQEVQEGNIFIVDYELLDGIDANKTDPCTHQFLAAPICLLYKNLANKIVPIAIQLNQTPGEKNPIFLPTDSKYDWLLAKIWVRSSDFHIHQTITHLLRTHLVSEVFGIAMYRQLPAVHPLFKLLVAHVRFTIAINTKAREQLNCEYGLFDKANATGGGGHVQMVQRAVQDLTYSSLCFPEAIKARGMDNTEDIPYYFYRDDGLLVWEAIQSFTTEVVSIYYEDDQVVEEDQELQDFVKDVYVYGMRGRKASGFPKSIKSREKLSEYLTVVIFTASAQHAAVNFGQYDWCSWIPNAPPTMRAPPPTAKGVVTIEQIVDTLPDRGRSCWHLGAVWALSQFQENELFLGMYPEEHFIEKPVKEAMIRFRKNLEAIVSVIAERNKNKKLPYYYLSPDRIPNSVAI
Experiment: Inhibitory activity against rat 5-lipoxygenase by using continuous oxygen consumption assay.
Procedure, shortened: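 Semipurified cytosolic 5-LO from rat basophilic leukemia (RBL-1) cells; continuous oxygen-electrode assay of oxygen consumption; IC50.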

IC50: 450 nM
SMILES: Cc1c2n(c3ccc(Oc4ccccc4)cc13)CCC2N(O)C(N)=O (stereo unspecified)
